Values of other authors, collected in patent US20100284984A1, “ADENOSINE AND ITS MIMETICS. MODULATORS, TRANSPORT INHIBITORS, AND RECEPTOR AGONISTS AS A THERAPEUTIC TOOL TO REPLACE OR IMPROVE THE EFFICACY OF DEEP BRAIN STIMULATION” (University of Rochester, priority 2007, published 2010).

Sequences of proteins named here, by UniProt entry; tags and fusion partners are left off.
UniProt P55263, whole entry: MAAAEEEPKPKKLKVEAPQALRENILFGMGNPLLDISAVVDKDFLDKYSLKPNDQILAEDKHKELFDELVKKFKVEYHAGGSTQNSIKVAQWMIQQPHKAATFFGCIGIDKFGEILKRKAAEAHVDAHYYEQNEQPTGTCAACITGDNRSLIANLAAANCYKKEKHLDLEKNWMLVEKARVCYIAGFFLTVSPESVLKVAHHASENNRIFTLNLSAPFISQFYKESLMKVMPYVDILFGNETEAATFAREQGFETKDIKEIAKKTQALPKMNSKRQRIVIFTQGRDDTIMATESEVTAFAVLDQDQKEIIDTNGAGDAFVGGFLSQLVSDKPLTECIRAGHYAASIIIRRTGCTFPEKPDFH

Biological target: adenosine kinase (Homo sapiens, UniProt P55263)
Conditions: cited from earlier work

NC[C@H]1O[C@@H](n2nc(Br)c3c(N)ncnc32)[C@H](O)[C@@H]1O
IC50: 206 nM
